Here are results for one compound from patent US10449216B2, “Modulating drug effects against metabotropic glutamate receptor with extracellular calcium” (GEORGIA STATE UNIVERSITY RESEARCH FOUNDATION, INC., priority 2013, dated 2019).

Sequences of proteins named here, by UniProt entry; tags and fusion partners are left off. Residues count along the entry.
UniProt P23385, 19-1199: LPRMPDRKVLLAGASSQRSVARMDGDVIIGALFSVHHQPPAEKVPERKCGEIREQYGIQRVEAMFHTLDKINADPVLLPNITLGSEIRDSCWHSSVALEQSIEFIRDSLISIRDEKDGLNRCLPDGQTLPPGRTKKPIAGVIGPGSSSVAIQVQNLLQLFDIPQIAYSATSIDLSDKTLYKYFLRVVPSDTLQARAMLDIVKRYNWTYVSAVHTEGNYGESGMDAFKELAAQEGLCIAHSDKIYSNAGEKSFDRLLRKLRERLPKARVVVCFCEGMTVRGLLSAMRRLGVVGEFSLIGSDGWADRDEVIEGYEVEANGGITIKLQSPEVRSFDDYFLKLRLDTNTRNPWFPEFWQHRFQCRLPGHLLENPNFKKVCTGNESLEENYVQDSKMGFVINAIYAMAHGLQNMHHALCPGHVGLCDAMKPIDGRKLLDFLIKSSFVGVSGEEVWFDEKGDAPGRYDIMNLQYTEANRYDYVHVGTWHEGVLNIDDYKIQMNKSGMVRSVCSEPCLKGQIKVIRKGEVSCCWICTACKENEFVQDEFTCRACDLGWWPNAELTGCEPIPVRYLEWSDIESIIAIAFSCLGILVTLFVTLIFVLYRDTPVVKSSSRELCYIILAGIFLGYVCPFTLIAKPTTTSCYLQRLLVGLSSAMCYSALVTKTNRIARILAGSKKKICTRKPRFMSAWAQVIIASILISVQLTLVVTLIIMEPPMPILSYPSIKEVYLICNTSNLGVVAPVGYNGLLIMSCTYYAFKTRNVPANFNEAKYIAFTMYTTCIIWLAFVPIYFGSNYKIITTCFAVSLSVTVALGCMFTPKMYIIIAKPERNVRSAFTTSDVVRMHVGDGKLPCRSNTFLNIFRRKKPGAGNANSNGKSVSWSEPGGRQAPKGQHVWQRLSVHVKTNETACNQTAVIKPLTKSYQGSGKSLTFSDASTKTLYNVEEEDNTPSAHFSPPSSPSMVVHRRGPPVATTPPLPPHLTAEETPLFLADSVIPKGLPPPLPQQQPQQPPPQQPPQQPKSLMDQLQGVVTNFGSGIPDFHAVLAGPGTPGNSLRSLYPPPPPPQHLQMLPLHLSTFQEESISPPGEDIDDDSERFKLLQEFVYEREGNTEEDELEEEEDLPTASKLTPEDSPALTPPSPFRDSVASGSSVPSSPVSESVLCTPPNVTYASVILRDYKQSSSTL
UniProt P23385, 19-1199 D322I: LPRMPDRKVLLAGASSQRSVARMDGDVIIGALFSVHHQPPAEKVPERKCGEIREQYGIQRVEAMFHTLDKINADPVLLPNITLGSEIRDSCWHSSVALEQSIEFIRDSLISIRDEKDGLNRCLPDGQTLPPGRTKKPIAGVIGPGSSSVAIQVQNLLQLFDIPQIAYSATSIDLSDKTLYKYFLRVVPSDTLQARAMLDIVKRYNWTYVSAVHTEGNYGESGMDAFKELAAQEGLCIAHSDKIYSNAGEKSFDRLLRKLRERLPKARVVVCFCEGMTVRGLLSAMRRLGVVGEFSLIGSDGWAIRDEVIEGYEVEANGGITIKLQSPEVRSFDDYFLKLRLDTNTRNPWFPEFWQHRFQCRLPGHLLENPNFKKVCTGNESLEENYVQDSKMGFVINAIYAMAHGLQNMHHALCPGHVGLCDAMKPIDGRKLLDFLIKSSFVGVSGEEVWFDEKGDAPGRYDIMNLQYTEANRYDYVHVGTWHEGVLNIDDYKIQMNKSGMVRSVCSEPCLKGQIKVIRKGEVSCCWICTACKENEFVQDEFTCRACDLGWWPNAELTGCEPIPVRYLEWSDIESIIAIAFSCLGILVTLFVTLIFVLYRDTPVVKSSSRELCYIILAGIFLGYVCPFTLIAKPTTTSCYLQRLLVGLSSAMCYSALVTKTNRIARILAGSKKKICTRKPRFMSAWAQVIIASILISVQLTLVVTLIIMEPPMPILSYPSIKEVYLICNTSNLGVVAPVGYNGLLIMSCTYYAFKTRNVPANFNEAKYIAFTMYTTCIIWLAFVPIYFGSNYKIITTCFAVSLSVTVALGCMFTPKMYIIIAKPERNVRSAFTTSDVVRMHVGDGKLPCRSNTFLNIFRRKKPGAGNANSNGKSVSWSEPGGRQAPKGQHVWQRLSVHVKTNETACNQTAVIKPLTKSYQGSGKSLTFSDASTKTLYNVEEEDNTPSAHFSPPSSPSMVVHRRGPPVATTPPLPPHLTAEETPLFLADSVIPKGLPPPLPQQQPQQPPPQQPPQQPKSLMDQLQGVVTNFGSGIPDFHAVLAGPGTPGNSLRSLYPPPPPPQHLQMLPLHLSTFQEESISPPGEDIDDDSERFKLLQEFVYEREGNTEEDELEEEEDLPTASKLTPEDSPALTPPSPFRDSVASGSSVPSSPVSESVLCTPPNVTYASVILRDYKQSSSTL
UniProt P23385, 19-1199 E325I: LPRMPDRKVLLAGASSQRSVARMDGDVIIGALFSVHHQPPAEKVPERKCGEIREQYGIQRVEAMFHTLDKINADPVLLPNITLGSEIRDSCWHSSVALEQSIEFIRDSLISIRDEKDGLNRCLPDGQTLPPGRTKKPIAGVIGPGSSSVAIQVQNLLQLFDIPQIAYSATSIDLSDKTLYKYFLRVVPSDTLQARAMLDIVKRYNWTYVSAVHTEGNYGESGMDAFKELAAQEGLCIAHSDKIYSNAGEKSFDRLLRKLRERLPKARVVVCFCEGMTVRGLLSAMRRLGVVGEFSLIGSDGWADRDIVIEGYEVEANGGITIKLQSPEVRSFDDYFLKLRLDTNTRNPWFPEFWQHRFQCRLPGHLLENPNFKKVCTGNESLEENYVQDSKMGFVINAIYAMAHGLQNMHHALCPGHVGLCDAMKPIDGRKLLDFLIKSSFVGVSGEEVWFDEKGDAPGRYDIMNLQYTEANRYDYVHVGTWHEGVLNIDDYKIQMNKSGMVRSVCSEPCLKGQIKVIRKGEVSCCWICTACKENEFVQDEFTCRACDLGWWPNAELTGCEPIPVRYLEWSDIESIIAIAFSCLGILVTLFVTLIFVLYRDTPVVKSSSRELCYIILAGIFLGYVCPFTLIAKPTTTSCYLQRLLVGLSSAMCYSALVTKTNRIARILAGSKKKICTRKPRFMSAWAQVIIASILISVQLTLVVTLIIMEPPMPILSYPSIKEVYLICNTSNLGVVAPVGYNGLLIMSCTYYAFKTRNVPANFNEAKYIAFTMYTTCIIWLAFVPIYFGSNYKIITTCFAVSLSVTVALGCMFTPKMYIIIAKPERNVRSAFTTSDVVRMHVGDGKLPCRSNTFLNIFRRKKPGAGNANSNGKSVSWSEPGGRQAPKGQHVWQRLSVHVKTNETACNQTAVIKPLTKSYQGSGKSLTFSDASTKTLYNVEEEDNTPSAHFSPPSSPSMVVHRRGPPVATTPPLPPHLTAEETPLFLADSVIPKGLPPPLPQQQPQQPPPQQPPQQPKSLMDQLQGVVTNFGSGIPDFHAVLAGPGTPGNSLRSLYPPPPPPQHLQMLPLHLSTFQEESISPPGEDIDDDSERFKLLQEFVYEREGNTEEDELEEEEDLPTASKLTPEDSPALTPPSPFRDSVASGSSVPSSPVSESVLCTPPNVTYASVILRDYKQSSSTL

Where “and” joins values, the source holds several entries; their conditions need not be identical. Equal values may be shown once.

For assay [1], the target named is T1, WT mGluR1α (Rattus norvegicus, UniProt P23385).
T1 construct: expressed in transfected cells; host or cells: HEK293
Kind of assay: Single cell Fura-2 [Ca^2+]i response in HEK293 cells transiently transfected with WT mGluR1α. It is filed as cell-based. The note with it: EC50 of L-Quis.

Assay [2] concerns the target T1, WT mGluR1α. Kind of assay: [^3H]-L-Quis binding to membranes of HEK293 cells expressing WT mGluR1α.
The target in assay [3] is mGluR1 (Rattus norvegicus, UniProt P23385). The note with it: mGluR1, Sp. Rn; cited from earlier work.
For assay [4], the target named is mGluR1α D322I (Rattus norvegicus, UniProt P23385, D322I). Kind of assay: cell-based. Conditions: EC50 of L-Quis, [Ca^2+]i response.
Assay [5] deals with mGluR1α E325I (Rattus norvegicus, UniProt P23385, E325I). Kind of assay: cell-based. Conditions: EC50 of L-Quis, [Ca^2+]i response.

Turning to `N[C@@H](Cn1oc(=O)[nH]c1=O)C(=O)O` [L-Quis, L-Quisqualate], the EC50 in assay [1] ([Ca^2+]o 0 mM) is 12.8 nM and 12.6 nM; in assay [1] ([Ca^2+]o 1.8 mM), 2.8 nM; in assay [4] ([Ca^2+]o 0 mM), 12.4 nM; in assay [4] ([Ca^2+]o 1.8 mM), 3.2 nM; in assay [5] ([Ca^2+]o 0 mM), 20 nM and 20.6 nM; in assay [5] ([Ca^2+]o 1.8 mM), 7.6 nM. In assay [2], this compound gave a Kd of about 30 nM. In addition, the “Affinity (pKi)” value in assay [3] is reported as 7.5-8.0 pKi.

As usually defined, the EC50 is the concentration needed to bring the measured effect to its halfway point. The Kd is a measure of binding affinity in units of concentration.
